Values of other authors in patent US11142520B2, “LDHA activity inhibitors” (ARCTIC PHARMA AS, priority 2017, dated 2021).

Tested on: LDHA
Conditions: rapid clearance; cited from earlier work

Structure (SMILES): O=C1CC(c2ccc(N3CCOCC3)cc2)(c2ccsc2)NC(=O)C1Sc1ccccc1Cl (stereo not shown) [Example 24, 3-((2-chlorophenyl)thio)-6-(4-morpholinophenyl)-6-(thiophen-3-yl)piperidine-2,4-dione]
- duration of sustained inhibition of LDHA in vivo: ≤ 1 h
